From patent EP4821932A1, “PHOSPHATE SALT OF 1-((3S,4R)-3-((2-((1-ETHYL-1H-PYRAZOL-4-YL)AMINO)-7H-PYRROLO[2,3-D]PYRIMIDIN-4-YL)OXY)-4-FLUOROPIPERIDIN-1-YL)PROP-2-EN-1-ONE, CRYSTALLINE FORM THEREOF, AND METHOD FOR PREPARATION THEREOF” (dated 2026) come the findings set out here.

Structures can show the parent of a compound that is named as a salt.

Data set [1] in a line: Hygroscopicity analysis (DVS Hygroscopicity). Particulars: 0~95% RH at 25°C; for Hygroscopicity: class by degree of moisture adsorption. The method, then:
The physical properties of the free base (Compound 1) obtained in Preparation Example and the phosphate salt obtained in Example 1 were measured as follows. • 1) Melting Point: Measured with MP70 available from Mettler Toledo. The sample was collected through a capillary, and then allowed to fall freely using a specified glass rod, and repeated several times to ensure that there was no empty space in the capillary tube. Then, the transmittance was measured starting from 168°C and increasing the temperature by 1°C per minute, and the melting point was confirmed. The measurement results are shown in Table 2 below. • 2) Thermogravimetric analysis: Measured using TGA2 available from Mettler Toledo. 50 mg of the sample was placed in an Al2O3 pan, and the temperature was increased from 30.0°C at a rate of 10.00°C per minute to confirm the weight change up to 600.0 °C. Specific thermogravimetric analysis results are shown in FIG. 4. • 3) Hygroscopicity analysis (DVS Hygroscopicity): Measured using DVS Adventure available from Surface Measurement Systems. The sample was exposed to 0~95% RH using DVS at 25°C to confirm the hygroscopicity. Depending on the degree of moisture adsorption, it was divided into Non-hygroscopic (0~0.12%)/Slightly Hygroscopic (0.2~2%)/Moderately Hygroscopic (2.0~15.0%)/Very Hygroscopic (>15.0%). The measurement results are shown in Table 2 below. • 4) Water Solubility: Measured by HPLC available from Waters. The sample was supersaturated with water at 23~26°C, stirred for at least 18 hours, and then allowed to stand for at least 18 hours. The supernatant extracted using a centrifuge was filtered through a 0.45 µm filter. The HPLC area of the filtrate was measured to confirm the solubility. The measurement results are shown in Table 2 below. • 5) Stability: The purity was measured after 2 weeks under the accelerated testing criteria of 40±2°C/75±5% relative humidity. About 1 mg of the phosphoric acid salt solid obtained in Example 1 was dissolved in 1 ml of 100% methanol, and then 700 µl of acetonitrile was added to 300 µl of this solution, diluted, and the purity was measured by HPLC.

Data set [2] can be described thus: Water solubility by HPLC. The conditions noted are these: water at 23~26°C, stirred at least 18 hours, left to stand at least 18 hours, 0.45 µm filter. Here is the method: (§1) The physical properties of the free base (Compound 1) obtained in Preparation Example and the phosphate salt obtained in Example 1 were measured as follows. • 1) Melting Point: Measured with MP70 available from Mettler Toledo. The sample was collected through a capillary, and then allowed to fall freely using a specified glass rod, and repeated several times to ensure that there was no empty space in the capillary tube. Then, the transmittance was measured starting from 168°C and increasing the temperature by 1°C per minute, and the melting point was confirmed. The measurement results are shown in Table 2 below. • 2) Thermogravimetric analysis: Measured using TGA2 available from Mettler Toledo. […] Specific thermogravimetric analysis results are shown in FIG. 4. • 3) Hygroscopicity analysis (DVS Hygroscopicity): Measured using DVS Adventure available from Surface Measurement Systems. […] The measurement results are shown in Table 2 below. • 4) Water Solubility: Measured by HPLC available from Waters. […] The HPLC area of the filtrate was measured to confirm the solubility. The measurement results are shown in Table 2 below. • 5) Stability: The purity was measured after 2 weeks under the accelerated testing criteria of 40±2°C/75±5% relative humidity. […]

Data set [3] is described as follows: Stability under accelerated testing criteria (purity by HPLC). The conditions noted are these: purity by HPLC after 2 weeks at 40±2°C/75±5% relative humidity. Here is the method:
as §1

Regarding `C=CC(=O)N1CC[C@@H](F)[C@@H](Oc2nc(Nc3cnn(CC)c3)nc3[nH]ccc23)C1` [Free base of Preparation Example], in data set [1], the “Hygroscopicity (degree of moisture adsorption)” value turned out to be 6% and the Hygroscopicity entry is given as “Moderately Hygroscopic (Moderately Hygroscopic (2.0~15.0%))”. Further, the Water solubility in data set [2] is 568 µg/mL. In addition, the Stability in data set [3] is 94.87% (2 weeks).
On to `C=CC(=O)N1CC[C@@H](F)[C@@H](Oc2nc(Nc3cnn(CC)c3)nc3[nH]ccc23)C1` [Phosphate salt of Example], for which, in data set [1], the “Hygroscopicity (degree of moisture adsorption)” value stood at 3.4% and the Hygroscopicity entry was “Moderately Hygroscopic (Moderately Hygroscopic (2.0~15.0%))”. The Stability in data set [3] is given as 99.50% (2 weeks).
